The numbers were not newly measured in patent US20080234352A1, “Controlled release solid dispersions” (EGALET A/S, priority 2001, published 2008), which cites them from elsewhere.

The term t½ denotes how long it takes for the measured level to halve.

The conditions of data set [1]: in vivo.

As to `COc1ccccc1OCCNC[C@@H](O)COc1cccc2[nH]c3ccccc3c12` [R(+), R(+) carvedilol], in the data set with beta-adrenoreceptor, the “beta effect relative to S(−)” value is listed as 1/100. Moreover, the “α effect relative to S(−)” value with α-adrenoceptor is “the same”. In addition, the t½ in data set [1] was 9.6 h.
As to `COc1ccccc1OCCNC[C@H](O)COc1cccc2[nH]c3ccccc3c12` [S(−), S(−) carvedilol], in data set [1], the t½ is recorded as 22.1 h.
